Experimental data: PubChem BioAssay AID751 (NMMLSC, 2007)
The list shows a part of the results, in another mix than the full data. Active and inactive are the calls of the source.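 Rule for the calls: active = inhibition of disassembly above about 33% (limit read from the data); inconclusive = likely self-fluorescent, control bead median signal at least 40; inactive = the rest.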

System: 26S proteasome (yeast, GFP-tagged, ATP-dependent disassembly)
Test: blockers of yeast 26S proteasome breakdown – biochemical, bead-based flow cytometry, GFP-tagged proteasome, primary screen (AID 751);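 note: plate controls were ATP control with full disassembly for no effect and ATP-gamma-S intact proteasomes for full effect; higher percent means more bead fluorescence retained so stronger block of disassembly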
Details: anti-FLAG beads, stronger effect = higher value, concentration not given here

Structure (SMILES) | inhibition of disassembly
Fc1ccccc1NC1CCN(Cc2ccccc2)CC1 | inactive: 0.6%
N#CC1(Nc2ccccc2)CCN(CCc2ccccc2)CC1 | inactive: -2.39%
